Biological target: human APJ-AT1R (angiotensin Type 1) double stable CHO cell line (Homo sapiens (Human), UniProt P30556+P35414)
Conditions: APJ small molecule agonists plus AngII

Chains of the proteins cited; added tags and fusions are not shown. Lines headed by an entry give the natural chain unless they say otherwise; changes in a name come on top.
UniProt P35414: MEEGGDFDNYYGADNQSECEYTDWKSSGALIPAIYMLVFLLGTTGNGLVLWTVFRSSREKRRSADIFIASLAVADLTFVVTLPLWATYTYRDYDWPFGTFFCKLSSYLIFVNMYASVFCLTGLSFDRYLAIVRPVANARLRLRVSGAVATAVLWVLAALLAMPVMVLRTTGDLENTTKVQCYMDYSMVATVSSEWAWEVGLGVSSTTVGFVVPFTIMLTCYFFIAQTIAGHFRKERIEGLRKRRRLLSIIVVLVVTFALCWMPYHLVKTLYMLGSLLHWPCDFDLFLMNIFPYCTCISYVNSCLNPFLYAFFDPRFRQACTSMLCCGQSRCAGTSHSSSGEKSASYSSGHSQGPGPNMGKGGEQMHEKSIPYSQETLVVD

**Q.** How did the “effect of losartan on APJ agonist-induced cooperativity in the presence of AngII” value turn out when CCCCc1nc(Cl)c(CO)n1Cc1ccc(-c2ccccc2-c2nn[nH]n2)cc1 [losartan] was run?
**A.** Its value is “relieved this cooperativity”.

Reference: patent US10150760B2, “Compounds for use in preparing heterocyclic triazole agonists of the APJ receptor” (AMGEN INC., priority 2016, dated 2018)
